These results are taken from US11173144B2, “Adrenergic receptor modulating compounds and methods of using the same” (The Board of Trustees of the Leland Stanford Junior …, priority 2016, dated 2021).

A short description of this series: Pharmacokinetic study, 20 min post-dose collection (plasma and brain). The note with it: Sprague-Dawley, rat, in vivo; for concentration at 20 min: 10 mg/kg. On the set-up: species or system Sprague-Dawley rats. How it is done:
Two cohorts of Sprague-Dawley rats are used in two independent studies. All animals are fasted overnight before the experiment with free access to water. In study 1, a total of 18 rats are used for a 4 h time course pharmacokinetic (PK) study. […] On the day of the experiment, xamoterol is freshly prepared in saline. […] Four hours post-dose, rats are deeply anesthetized with isoflurane and blood samples are collected by cardiac puncture. In study 2, a total of 18 rats are used for a 20 min post-dose collection study. […] At 20 min post-dose, rats are deeply anesthetized with isoflurane and blood samples are collected by cardiac puncture. Brains are collected after perfusion with phosphate buffered saline. […] LC separation is carried out on a Phenomenex Synergi Polar-RP column (2.5 μm, 2 mm×50 mm) with a flow rate of 0.25 ml/min at room temperature. Mobile phase A consisted of 10 mM ammonium acetate and 0.1% formic acid in LCMS grade water. Mobile phase B consisted of 10 mM ammonium acetate and 0.1% formic acid in LCMS grade acetonitrile: water 90:10% (v/v). […] Five μl of the extracted samples is injected. The mass spectrometer is operated in the positive mode with multiple-reaction monitoring (MRM) with the transition m/z 334.1→210.1 and 334.1→100.2.

“And” between values parts separate entries of the source, which are not always exact repeats. Identical values can stand only once.

`O=C(NCCNCC(O)COc1ccc(O)cc1)N1CCOCC1` (centres unmarked) [Xamoterol]: the “plasma concentration following PO as percent of that achieved via IP” value (20 min) is recorded as 0.2%. Also, under “20 min”, the “plasma concentration following PO as percent of that achieved via IV” value is on record as 0.7%. Besides, the concentration at 20 min (ip) is 3110 ng/mL and 26.5 ng/g; the concentration at 20 min (iv) is 1120 ng/mL and 38.3 ng/g; the concentration at 20 min (po) is 8.1 ng/mL and 15.8 ng/g.
